The values that follow come from patent US20230129084A1, “COMPOSITE IMPLANTS” (Re-Vana Therapeutics Ltd., priority 2015, published 2023).

Series [1] can be described thus: In vitro drug release from in situ photocrosslinked implants (ISPcI) in PBS. Particulars: 30% PLGA/69.4% w/w PEGDA700 ISPcI crosslinked for 5 min, after 200 days.
Series [2] in a line: In vitro drug release from preformed photocrosslinked implants (PPcI) in PBS. It counts as physicochemical. Particulars: PPcI 30% w/w PLGA 75/25 / PEGDA 700, 5 runs, lamp intensity 100%, after 266 days.

For bovine serum albumin [BSA], the BSA released in series [1] was roughly 86%. In series [2], the “% release” value was “approx. 72%”.
